Laboratory results from patent publication US20230021419A1 (Bicycle, published 2023).
Values belong to the binder of their own block, whether it stands above or below them.

Experiments:
human IL-17A [1] = target: T1, human IL-17A (human, UniProt Q16552 24-155); assay: fluorescence polarization competition; tracer BCY13351, 50 nM IL-17A; mean, n=5
T1 construct: also called CTLA-8
T1 sequence (looked up): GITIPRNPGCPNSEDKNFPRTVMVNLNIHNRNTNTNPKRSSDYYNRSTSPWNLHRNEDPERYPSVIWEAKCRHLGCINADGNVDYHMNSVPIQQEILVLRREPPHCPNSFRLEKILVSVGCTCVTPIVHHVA
Experimental: (§1) Affinity determination by fluorescence polarization (FP) competition. Bicycles were screened to determine affinity (Ki) in a fluorescence polarisation assay where in competition with a bicycle labelled with fluorescein (referred to as tracer) with a known affinity for IL-17A. Peptides were diluted to an appropriate concentration in assay buffer (PBS+0.01% Tween20, adjusted to pH7.4 using NaOH (1M)) with a maximum of 1% DMSO, then serially diluted 1 in 2 into assay buffer. Into black 384-well low volume plates, 5 μL of diluted peptide was added to the plate followed by 10 μL of IL-17A at a fixed concentration (75 nM IL-17A for tracer BCY13196, 50 nM IL-17A for tracer BCY13351), then 10 μL tracer added to a final concentration of 1 nM. Measurements were conducted on a BMG PHERAstar FS equipped with an “FP 485 520 520” optic module which excites at 485 nm and detects parallel and perpendicular emission at 520 nm. The PHERAstar FS was set at 25° C. with 200 flashes per well and a positioning delay of 0.1 second, with each well measured at 5 to 10 minute intervals for 60 minutes. The gain used for measurements was determined at the point of experiment on a tracer alone well. […]
(§2) Selected peptide ligands of the invention were tested in the above mentioned IL-17A human fluorescence polarization (FP) competition assay and the results are shown in Table 1: […]

human IL-17A [2] = target: T1, human IL-17A; assay: fluorescence polarization competition; tracer cell blank, taken as BCY13351; mean, n=3
Experimental: Affinity determination by fluorescence polarization (FP) competition. Bicycles were screened to determine affinity (Ki) in a fluorescence polarisation assay where in competition with a bicycle labelled with fluorescein (referred to as tracer) with a known affinity for IL-17A. Peptides were diluted to an appropriate concentration in assay buffer (PBS+0.01% Tween20, adjusted to pH7.4 using NaOH (1M)) with a maximum of 1% DMSO, then serially diluted 1 in 2 into assay buffer. Into black 384-well low volume plates, 5 μL of diluted peptide was added to the plate followed by 10 μL of IL-17A at a fixed concentration (75 nM IL-17A for tracer BCY13196, 50 nM IL-17A for tracer BCY13351), then 10 μL tracer added to a final concentration of 1 nM. Measurements were conducted on a BMG PHERAstar FS equipped with an “FP 485 520 520” optic module which excites at 485 nm and detects parallel and perpendicular emission at 520 nm. The PHERAstar FS was set at 25° C. with 200 flashes per well and a positioning delay of 0.1 second, with each well measured at 5 to 10 minute intervals for 60 minutes. The gain used for measurements was determined at the point of experiment on a tracer alone well. Data analysis was performed in Dotmatics where mP values were fit to the Cheng Prusoff equation in order to generate a Ki value.
as §2

human IL-17A [3] = target: T1, human IL-17A; assay: fluorescence polarization competition; tracer BCY13196, 75 nM IL-17A; mean, n=3
Experimental: as §1, §2

Binder: CDTDPELCRFLGLDC (Ci, Cii, Ciii cyclised with TBMT, Bicyclic peptide on TBMT scaffold) [BCY13202]
Ki (human IL-17A [1]): 13.6 nM

Binder: CDTDPELCRFLALDC ([dA] = D-alanine in CiDTDPELCiiRFL[dA]LDCiii; Ci, Cii, Ciii cyclised with TBMT, Bicyclic peptide on TBMT scaffold) [BCY13201]
Ki (human IL-17A [2]): 23 nM

Binder: CDTDPELCAFLGLDC (Ci, Cii, Ciii cyclised with TBMT, Bicyclic peptide on TBMT scaffold) [BCY13208]
Ki (human IL-17A [2]): 36.3 nM

Binder: ACPQDLELCTFLFGDCA (Ci, Cii, Ciii cyclised with TBMT, Bicyclic peptide on TBMT scaffold) [BCY13060]
Ki (human IL-17A [3]): 228 nM

The remaining lines, values ahead:

Ki (human IL-17A [2]): 114 nM
Binder: CDTDPELCRFLNLDC (Ci, Cii, Ciii cyclised with TBMT, Bicyclic peptide on TBMT scaffold) [BCY13219]

Ki (human IL-17A [2]): 23 nM
Binder: CDTDPELCRFLVLDC ([dV] = D-valine in CiDTDPELCiiRFL[dV]LDCiii; Ci, Cii, Ciii cyclised with TBMT, Bicyclic peptide on TBMT scaffold) [BCY13648]

Ki (human IL-17A [2]): 62.9 nM
Binder: CDTDPELCRFLGVDC (Ci, Cii, Ciii cyclised with TBMT, Bicyclic peptide on TBMT scaffold) [BCY13222]

Ki (human IL-17A [2]): 41.1 nM
Binder: CDTDPELCSFLGLDC (Ci, Cii, Ciii cyclised with TBMT, Bicyclic peptide on TBMT scaffold) [BCY13651]

Ki (human IL-17A [2]): 28.7 nM
B1: BCY13647 (peptide)
peptide: CDTDPELCRFLELDC
modifications: [dE] = D-glutamate in CiDTDPELCiiRFL[dE]LDCiii; Ci, Cii, Ciii cyclised with TBMT
notes: Bicyclic peptide on TBMT scaffold

Ki (human IL-17A [2]): 29.9 nM
Binder: CDTDPELCRFLGIDC (Ci, Cii, Ciii cyclised with TBMT, Bicyclic peptide on TBMT scaffold) [BCY13221]
